This test relates to Calf thymus DNA. The test can be described thus: Displacement of ethidium bromide from calf thymus DNA by fluorometric assay. In kind it is nucleic-acid assay. The conditions noted are these: Bos taurus.
Regarding `CN(C)CCNC(=O)c1cccc2c(NCCCCCCNC(=O)c3ccc4ccccc4n3)c3ccccc3nc12`, the logKA stood at 6.68. The result for `CN(C)CCNC(=O)c1cccc2c(NCCCCCCNC(=O)c3cccc4ccccc34)c3ccccc3nc12` reads 6.72. The result for `CN(C)CCNC(=O)c1ccc2c(NCCCCCCNC(=O)c3cccc4ccccc34)c3ccccc3nc2c1` reads 6.22; that for `CN(C)CCNC(=O)c1ccc2c(NCCCCCCNC(=O)c3ccc4ccccc4n3)c3ccccc3nc2c1`, 6.43.

The values above are taken from ChEMBL document CHEMBL1287705, “Design and synthesis of threading intercalators to target DNA” (Bioorg Med Chem Lett, 2010).
